Paper PMC1805503 (Beilstein Journal of Organic Chemistry, 2007)

Sequences of proteins named here, by UniProt entry; tags and fusion partners are left off. A change or cut given only in a name is not applied to a line headed by its entry.
UniProt P41145: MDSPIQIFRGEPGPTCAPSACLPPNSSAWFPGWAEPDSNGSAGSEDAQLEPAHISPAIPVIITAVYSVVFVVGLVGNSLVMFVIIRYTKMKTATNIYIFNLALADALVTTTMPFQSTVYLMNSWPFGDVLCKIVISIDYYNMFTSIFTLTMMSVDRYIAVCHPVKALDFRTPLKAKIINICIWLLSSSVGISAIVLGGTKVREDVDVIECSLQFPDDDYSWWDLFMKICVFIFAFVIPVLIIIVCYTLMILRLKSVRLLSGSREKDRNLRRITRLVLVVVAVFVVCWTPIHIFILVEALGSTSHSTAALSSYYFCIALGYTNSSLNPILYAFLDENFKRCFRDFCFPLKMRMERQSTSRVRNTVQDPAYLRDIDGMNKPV

Target: human KOR (Homo sapiens, UniProt P41145)
Experiment: Enhancement of [35S]GTPγS binding to CHO-hKOR membranes
Type: biochemical
Settings: relative to that of U50,488H control

Structure (SMILES): COC(=O)[C@@H]1C[C@H](OC(C)=O)C(=O)[C@H]2[C@@]1(C)CC[C@H]1C(=O)O[C@H](c3ccoc3)C[C@]21C
- Emax ± SEM: 98 ± 3%
